{"source": "patent US20050002552A1", "about": "“Automated in vitro cellular imaging assays for micronuclei and other target objects” (Pfizer Inc, priority 2003, published 2005)", "tested_on": "Chinese hamster ovary cells", "note": "Several values for one entry are separate records, joined by “and”; a condition that tells them apart may be missing. Equal values may be shown once. Read-outs that look alike come from different tables or passages of the source.", "data": [{"smiles": "CO[C@@]12[C@H](COC(N)=O)C3=C(C(=O)C(C)=C(N)C3=O)N1C[C@@H]1N[C@@H]12", "note": "[Mitomycin C]", "values": [{"measurement": "Auto MN % (micronuclei frequency, automated method of this invention)", "value": 3.3, "unit": "%"}, {"measurement": "Manual MN % (micronuclei frequency, number of micronuclei divided by number of binucleated cells, manual scoring)", "value": 3, "unit": "%"}, {"measurement": "Auto MN % (micronuclei frequency, automated method of this invention)", "setting": "0.05 mcg/ml, 24 hours, Cytochalasin B protocol, independent duplicate wells, automated scoring", "value": 2.7, "unit": "%"}, {"measurement": "Auto MN % (micronuclei frequency, automated method of this invention)", "setting": "0.05 mcg/ml, 24 hours, Cytochalasin B protocol, independent duplicate wells, automated scoring, listed as mitomycin C", "value": 3.3, "unit": "%"}, {"measurement": "Manual MN % (micronuclei frequency, number of micronuclei divided by number of binucleated cells, manual scoring)", "setting": "0.05 mcg/ml, 24 hours, Cytochalasin B protocol, independent duplicate wells, manual scoring", "value": "3% and 3.8%"}]}]}
